pIC50: −log10 of the molar value.
Tests used:
[1] = Systemic toxicity observation in GBM6 PDX mice (Example 4); assay type: in vivo; conditions: 20 mg/kg BCV intraperitoneally twice weekly
[2] = test system: U87MG human glioblastoma (GBM) cell line; assay: Antitumor effect in U87MG GBM animal model, bioluminescence imaging (Example 1); assay type: in vivo, nude mice
Description: (§1) The study was composed of four groups of 8 to 10 GBM model mice per group. […] BCV and the vehicle were administered intraperitoneally twice weekly for 5 weeks, starting on day 7 post-GBM implantation. During the administration period, to evaluate tumor growth in the brain, bioluminescence imaging (BLI) was performed twice weekly using the IVIS Lumina imaging system, 10 minutes after intraperitoneal administration of 150 mg/kg luciferin under ketamine-xylazine anesthesia.

[3] = Body weight and systemic toxicity observation in GBM model mice (Example 1); assay type: in vivo, nude mice
Description: as §1

[4] = Systemic toxicity observation in additional PDX models (Example 10, paper example); assay type: in vivo, mice; conditions: 20 mg/kg BCV intraperitoneally twice weekly
Description: (§2) The study is composed of two groups of 10 PDX mice per group. The first group is administered with 20 mg/kg of BCV, and the second group with the vehicle only. BCV is administered intraperitoneally twice weekly from day 5 to day 28 post-implantation.

[5] = PK study of BCV in mice, plasma concentration (Example 5); assay type: in vivo, Female C57BL/6 mice; conditions: female, C57BL/6, mouse, ip, estimated for 10 mg/kg intraperitoneal in mice from the average of day 1 and 6-day continuous 13 mg/kg results
Description: Female C57BL/6 mice were administered intraperitoneally with BCV at 13 mg/kg (n=3) and, after continuous administration of the same dose for 6 days, blood samples were collected at 0.5, 1, 2, 4, 8, 12, and 24 hours. The plasma BCV concentration obtained from K2EDTA-treated samples was quantified by a previously reported MC-MS/MS method (Biomed Chromatogr. 2021 35:e5061). […] Based on the above, the intraperitoneal administration of 10 mg/kg BCV, 20 mg/kg BCV, and 40 mg/kg BCV to mice in Examples 1 to 4 (including monotherapy or combination therapy) can be converted to intravenous administration of 20 mg/body BCV, 40 mg/body BCV, and 80 mg/body BCV to humans, respectively.

[6] = test system: U87MG human glioblastoma (GBM) cell line; assay: BCV and TMZ combination in U87MG GBM animal model, BLI and survival rate (Example 2)
[7] = test system: LN-18; assay: CellTiter-Glo (CTG) cytotoxicity assay; assay type: cell-based; conditions: Homo sapiens, 120 h, 5 days of culture
Description: (§3) The in vitro cytotoxicity of BCV against various human GBM cell lines shown in Table 1 was evaluated by the CellTiter-GloTM (CTG) assay (Promega, Wisconsin, USA). The CTG assay measures the number of viable cells in culture by quantifying intracellular adenosine triphosphate (ATP), an indicator of metabolic activity, by bioluminescence. Specifically, various concentrations of BCV were added to 96-well plates in which GBM cells were plated at a concentration of 2 x 10^3 cells in each medium shown in Table 1, and after 5 days of culture at 37°C and 5% CO2, the cells were treated with CTG reagent and lysed. The fluorescence signal was measured using an Envision™ plate reader (PerkinElmer, Connecticut, USA). Cytotoxicity was evaluated as a percentage of the control fluorescence signal. A dose-response curve was generated by plotting the percentage of cytotoxicity against the drug concentration using GraphPad Prism (GraphPad Software, Massachusetts, USA). Furthermore, the 50% inhibitory concentration (IC50 value) of BCV against various GBM cell lines was determined to evaluate the cytotoxic effect. All assays were performed in duplicate.

[8] = test system: LN-229; assay: CellTiter-Glo (CTG) cytotoxicity assay; assay type: cell-based; conditions: Homo sapiens, 120 h, 5 days of culture
Description: as §3

[9] = test system: AM-38; assay: CellTiter-Glo (CTG) cytotoxicity assay; assay type: cell-based; conditions: Homo sapiens, 120 h, 5 days of culture
Description: as §3

[10] = test system: KALS-1; assay: CellTiter-Glo (CTG) cytotoxicity assay; assay type: cell-based; conditions: Homo sapiens, 120 h, 5 days of culture
Description: as §3

[11] = test system: SNU-466; assay: CellTiter-Glo (CTG) cytotoxicity assay; assay type: cell-based; conditions: Homo sapiens, 120 h, 5 days of culture
Description: as §3

[12] = test system: A-172; assay: CellTiter-Glo (CTG) cytotoxicity assay; assay type: cell-based; conditions: Homo sapiens, 120 h, 5 days of culture
Description: as §3

[13] = test system: KNS-42; assay: CellTiter-Glo (CTG) cytotoxicity assay; assay type: cell-based; conditions: Homo sapiens, 120 h, 5 days of culture
Description: as §3

[14] = test system: U-87MG; assay: CellTiter-Glo (CTG) cytotoxicity assay; assay type: cell-based; conditions: Homo sapiens, 120 h, 5 days of culture
Description: as §3

[15] = test system: T98G; assay: CellTiter-Glo (CTG) cytotoxicity assay; assay type: cell-based; conditions: Homo sapiens, 120 h, 5 days of culture
Description: as §3

[16] = test system: U-138 MG; assay: CellTiter-Glo (CTG) cytotoxicity assay; assay type: cell-based; conditions: Homo sapiens, U138-MG, 120 h, 5 days of culture
Description: as §3

[17] = test system: SNU-1105; assay: CellTiter-Glo (CTG) cytotoxicity assay; assay type: cell-based; conditions: Homo sapiens, 120 h, 5 days of culture
Description: as §3

[18] = test system: GBM39 cells derived from a GBM patient; assay: Orthotopic GBM PDX model with GBM39 cells, BLI and Kaplan-Meier survival (Example 9); assay type: in vivo, mice
[19] = test system: U-87MG/MGMT monoclonal cells A8-1; assay: Cytotoxicity test on MGMT-overexpressing U-87MG monoclonal cells (Example 7); assay type: cell-based, human; conditions: A8-1 cells; higher than parent strain
Description: as §3, with “A dose-response curve was generated by plotting the percentage of cytotoxicity against the drug concentration using GraphPad Prism (GraphPad Software, Massachusetts, USA). Furthermore, the 50% inhibitory concentration (IC50 value) of BCV against various GBM cell lines was determined to evaluate the cytotoxic effect. All assays were performed in duplicate.” left out
(§4) To further clarify the effect of MGMT expression on sensitivity to BCV, the MGMT gene was forcibly expressed in the U-87MG cell line using a lentivirus as a vector. […] The MGMT expression level was evaluated using quantitative polymerase chain reaction (PCR) and Western blotting.
(§5) Monoclonal cells of the U-87MG cell line with forced expression of the MGMT gene were generated from U-87MG/MGMT pooled cells using the limiting dilution method in a 96-well plate. […] MGMT expression in U-87MG/MGMT monoclonal cells was identified by quantitative PCR and Western blotting in the same manner as described above. […]

[20] = test system: U-87MG/MGMT monoclonal cells E7-3; assay: as above; assay type: cell-based, human; conditions: E7-3 cells; higher than parent strain
Description: as §3, with “A dose-response curve was generated by plotting the percentage of cytotoxicity against the drug concentration using GraphPad Prism (GraphPad Software, Massachusetts, USA). Furthermore, the 50% inhibitory concentration (IC50 value) of BCV against various GBM cell lines was determined to evaluate the cytotoxic effect. All assays were performed in duplicate.” left out
as §4, §5

[21] = test system: various human GBM cell lines; assay: CellTiter-Glo (CTG) cytotoxicity assay, all 11 cell lines together; assay type: cell-based; conditions: median over the 11 human GBM cell lines
Description: as §3

[22] = test system: GBM6 cells derived from a GBM patient; assay: Orthotopic GBM PDX model with GBM6 cells (unmethylated MGMT promoter), BLI and survival rate (Example 4); assay type: in vivo, mice
[23] = Systemic toxicity observation in GBM model mice (Example 2); assay type: in vivo, nude mice; conditions: any of the BCV monotherapy (10, 20 mg/kg) and combination therapy (with 2 mg/kg TMZ) groups
[24] = test system: GBM12, GBM14, GBM26, or GBM43 cells derived from GBM patients; assay: Orthotopic GBM PDX models with additional patient cells, BLI and survival (Example 10, paper example); assay type: in vivo, mice
Description: as §2

[25] = 20 mg/kg BCV intraperitoneally twice weekly

Structure (SMILES): CCCCCCCCCCCCCCCCOCCCOP(=O)(O)CO[C@H](CO)Cn1ccc(N)nc1=O [BCV, [(2S)-1-(4-amino-2-oxopyrimidin-1-yl)-3-hydroxypropan-2-yl]oxymethyl-(3-hexadecoxypropoxy)phosphinic acid]
- systemic toxicity symptoms [1]: no remarkable systemic toxicity symptoms were observed
- normalized BLI (proliferation of GBM cells in the brain) compared to the vehicle group ([2]; 10 mg/kg BCV intraperitoneally twice weekly for 5 weeks from day 7 post-implantation): tendency to suppress the growth of intracerebral GBM compared to the vehicle group, although the difference was not statistically significant
- normalized BLI (proliferation of GBM cells in the brain) compared to the vehicle group ([2]; 20 mg/kg BCV intraperitoneally twice weekly for 5 weeks, days 28 and 35 post-implantation): significant (P < 0.05) decrease in normalized BLI
- normalized BLI (proliferation of GBM cells in the brain) compared to the vehicle group ([2]; 40 mg/kg BCV intraperitoneally twice weekly for 5 weeks, between days 22 and 35 post-implantation): significant (P < 0.05 to P < 0.0001) decrease in normalized BLI
- body weight ([3]; 40 mg/kg BCV intraperitoneally twice weekly for 5 weeks): weight loss was observed
- systemic toxicity symptoms ([3]; other BCV-treated groups (10 and 20 mg/kg BCV intraperitoneally twice weekly)): No remarkable systemic toxicity symptoms were observed
- systemic toxicity symptoms [4]: No remarkable systemic toxicity symptoms are observed
- AUC(0-inf) ([5]; read-out: drug exposure, AUCinf): 2910 ng·h/mL
- Cmax ([5]; read-out: drug exposure, Cmax): 1940 ng/mL
- survival rate on day 37 post-GBM implantation ([6]; 10 mg/kg BCV monotherapy): no individuals survived
- growth of intracerebral GBM (normalized BLI) compared to the vehicle group ([6]; 10 mg/kg BCV monotherapy, intraperitoneally twice weekly day 8 to day 38): tendency to suppress the growth of intracerebral GBM compared to the vehicle group, although the difference was not statistically significant
- survival rate on day 37 post-GBM implantation ([6]; 20 mg/kg BCV monotherapy): 50%
- normalized BLI compared to the vehicle group ([6]; 20 mg/kg BCV monotherapy, days 23 and 28 post-implantation): significant (P < 0.05) decrease in normalized BLI
- pIC50 [7]: 6.02
- pIC50 [8]: 5.13
- pIC50 [9]: 5.75
- pIC50 [10]: 7.52
- pIC50 [11]: 5.71
- pIC50 [12]: 5.66
- pIC50 [13]: 4.13
- pIC50 [14]: 5.23
- pIC50 [15]: 6.09
- pIC50 [16]: 5.08
- pIC50 [17]: 5.03
- individuals alive on day 33 post-GBM implantation [18, 25]: 65%
- normalized BLI compared to the vehicle group ([18]; 20 mg/kg BCV intraperitoneally twice weekly day 5 to day 28, between days 21 and 28 post-implantation): significant (P < 0.0001) decrease in normalized BLI
- median survival time ([18]; 20 mg/kg BCV, P < 0.01, vehicle group 25.5 days): 50.0 days
- sensitivity to BCV relative to the parent strain U-87MG cells [19]: 2.47 times
- sensitivity to BCV relative to the parent strain U-87MG cells [20]: 16.28 times
- pIC50 [21]: 5.66
- individuals survived on day 27 post-GBM implantation [22, 25]: 60%
- normalized BLI compared to the vehicle group ([22]; 20 mg/kg BCV intraperitoneally twice weekly day 6 to day 30, between days 13 and 23 post-implantation): significant (P < 0.05 to P < 0.01) decrease in normalized BLI
- systemic toxicity symptoms [23]: no remarkable systemic toxicity symptoms were observed
- survival period compared to the vehicle group [24, 25]: longer survival period
- normalized BLI compared to the vehicle group ([24]; 20 mg/kg BCV intraperitoneally twice weekly day 5 to day 28): significant decrease in normalized BLI
